{"source": "patent US5534260A", "about": "“Percutaneous drug delivery system” (priority 1994, dated 1996)", "key": {"[1]": {"assay": "Effect of pH on drug penetration through hairless mouse skin pretreated with papain (Example V B)", "assay_type": "in vitro ADME", "details": "sigma papain 0.093 mg/ml for 24 hours", "description": "B. Effect of pH on drug penetration through hairless mouse\nskin Pretreated with sigma papain of concentration 0.093"}, "[2]": {"assay": "Effect of pH on drug penetration through normal untreated hairless mouse skin (Example V A)", "assay_type": "in vitro ADME"}}, "note": "Several values for one entry are separate records, joined by “and”; a condition that tells them apart may be missing. Equal entries are not always repeated.", "data": [{"smiles": "CC(=O)CC(c1ccccc1)c1c(O)c2ccccc2oc1=O", "note": "(centres unmarked) [Warfarin]", "values": [{"measurement": "J (flux)", "setting": "[1]; pH 5.9", "result": "1.27 × 10^-7 mg/cm^2 /sec"}, {"measurement": "J (flux)", "setting": "[1]; pH 6.6", "result": "1.20 × 10^-7 mg/cm^2 /sec"}, {"measurement": "J (flux)", "setting": "[1]; pH 7.4", "result": "0.99 × 10^-7 mg/cm^2 /sec"}, {"measurement": "J (flux)", "setting": "[1]; pH 8.0", "result": "1.21 × 10^-7 mg/cm^2 /sec"}, {"measurement": "J (flux)", "setting": "[2]; pH 5.9", "result": "1.66 × 10^-8 mg/cm^2 /sec"}, {"measurement": "J (flux)", "setting": "[2]; pH 6.6", "result": "9.16 × 10^-9 mg/cm^2 /sec"}, {"measurement": "J (flux)", "setting": "[2]; pH 7.4", "result": "4.68 × 10^-9 mg/cm^2 /sec"}, {"measurement": "J (flux)", "setting": "[2]; pH 8.0", "result": "4.73 × 10^-9 mg/cm^2 /sec and 4.73 × 10^-8 mg/cm^2 /sec"}]}]}
